In paper PMC7802075, “Antileishmanial Chemotherapy through Clemastine Fumarate Mediated Inhibition of the Leishmania Inositol Phosphorylceramide Synthase” (ACS Infectious Diseases, 2020):

What was measured:
[1] = biological target: T1, LmjIPCS (inositol phosphorylceramide synthase from L. major) (Leishmania major, UniProt E9AFX2)
T1 sequence (E9AFX2 1-338): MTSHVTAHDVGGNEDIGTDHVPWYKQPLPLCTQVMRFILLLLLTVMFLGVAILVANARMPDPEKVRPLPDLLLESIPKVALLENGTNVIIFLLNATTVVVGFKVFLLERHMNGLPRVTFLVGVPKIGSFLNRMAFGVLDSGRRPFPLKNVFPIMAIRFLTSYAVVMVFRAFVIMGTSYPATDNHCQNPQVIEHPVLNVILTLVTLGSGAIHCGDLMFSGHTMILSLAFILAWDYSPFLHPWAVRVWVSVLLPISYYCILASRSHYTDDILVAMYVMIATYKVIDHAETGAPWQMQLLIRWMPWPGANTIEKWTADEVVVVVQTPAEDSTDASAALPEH

[2] = biological target: T1, LmjIPCS (inositol phosphorylceramide synthase from L. major); test: biochemical; settings: read-out: 20mM inhibition LmjIPCS

SMILES: COc1cc([C@@H]2c3cc4c(cc3[C@@H](O)[C@H]3COC(=O)[C@H]23)OCO4)cc(OC)c1O [4'-DEMETHYLEPIPODOPHYLLOTOXIN]
- 20mM inhibition LmjIPCS [1]: 7%

SMILES: COc1ccc(C[C@H]2NC[C@H](O)[C@H]2OC(C)=O)cc1 [ANISOMYCIN]
- 20mM inhibition LmjIPCS [1]: 5%

SMILES: O=C(O)CCCC[C@@H]1SC[C@@H]2NC(=O)N[C@@H]21 [BIOTIN]
- inhibition at 20000 µM [2]: 5%

SMILES: O=C(O)C1CCCNC1 (stereo not shown) [NIPECOTIC ACID]
- inhibition at 20000 µM [2]: 17%

SMILES: O=[N+]([O-])c1cc([As](=O)(O)O)ccc1O [ROXARSONE]
- 20mM inhibition LmjIPCS [1]: 2.66%

SMILES: CCN(CC)CCOc1ccc(C(=C(Cl)c2ccccc2)c2ccccc2)cc1 [clomiphene 4, clomiphene, reference compound]
- LmjIPCS inhibition [1]: confirmed

SMILES: CN[C@H]1CC[C@@H](c2ccc(Cl)c(Cl)c2)c2ccccc21 [sertraline 13, sertraline, reference compound]
- LmjIPCS inhibition [1]: confirmed
